Among the data in ChEMBL document CHEMBL3616411, “Discovery of 1-hydroxypyridine-2-thiones as selective histone deacetylase inhibitors and their potential application for treating leukemia” (Bioorg Med Chem Lett, 2015) are IC50 values, retold here.

Sequences of proteins named here, by UniProt entry; tags and fusion partners are left off. A change or cut given only in a name is not applied to a line headed by its entry.
UniProt Q9UKV0: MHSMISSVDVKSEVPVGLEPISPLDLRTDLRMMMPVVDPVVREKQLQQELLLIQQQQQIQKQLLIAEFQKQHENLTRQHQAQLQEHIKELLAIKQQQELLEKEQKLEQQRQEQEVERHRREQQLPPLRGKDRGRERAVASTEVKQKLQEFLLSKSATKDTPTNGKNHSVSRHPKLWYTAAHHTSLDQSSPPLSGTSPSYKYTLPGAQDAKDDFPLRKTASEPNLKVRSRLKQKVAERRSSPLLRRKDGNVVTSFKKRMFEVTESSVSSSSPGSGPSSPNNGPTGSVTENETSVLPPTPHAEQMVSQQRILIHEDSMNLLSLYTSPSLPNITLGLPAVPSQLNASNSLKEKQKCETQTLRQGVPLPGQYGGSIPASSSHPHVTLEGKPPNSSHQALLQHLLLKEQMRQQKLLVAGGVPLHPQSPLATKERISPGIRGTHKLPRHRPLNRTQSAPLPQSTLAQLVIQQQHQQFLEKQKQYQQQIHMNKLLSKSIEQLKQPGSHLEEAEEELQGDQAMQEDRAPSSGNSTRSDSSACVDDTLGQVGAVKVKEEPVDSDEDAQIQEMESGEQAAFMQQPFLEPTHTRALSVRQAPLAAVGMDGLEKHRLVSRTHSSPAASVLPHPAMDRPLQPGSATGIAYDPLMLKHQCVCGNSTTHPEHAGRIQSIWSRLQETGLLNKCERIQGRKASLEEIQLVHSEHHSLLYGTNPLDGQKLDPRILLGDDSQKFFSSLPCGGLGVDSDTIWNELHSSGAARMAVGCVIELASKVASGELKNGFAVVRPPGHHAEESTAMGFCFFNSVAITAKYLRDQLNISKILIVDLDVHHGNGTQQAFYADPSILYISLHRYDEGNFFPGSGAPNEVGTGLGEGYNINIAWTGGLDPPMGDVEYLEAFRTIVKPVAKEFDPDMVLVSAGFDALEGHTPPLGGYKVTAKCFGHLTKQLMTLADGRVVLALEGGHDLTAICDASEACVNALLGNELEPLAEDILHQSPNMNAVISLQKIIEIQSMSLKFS
UniProt Q9UQL6: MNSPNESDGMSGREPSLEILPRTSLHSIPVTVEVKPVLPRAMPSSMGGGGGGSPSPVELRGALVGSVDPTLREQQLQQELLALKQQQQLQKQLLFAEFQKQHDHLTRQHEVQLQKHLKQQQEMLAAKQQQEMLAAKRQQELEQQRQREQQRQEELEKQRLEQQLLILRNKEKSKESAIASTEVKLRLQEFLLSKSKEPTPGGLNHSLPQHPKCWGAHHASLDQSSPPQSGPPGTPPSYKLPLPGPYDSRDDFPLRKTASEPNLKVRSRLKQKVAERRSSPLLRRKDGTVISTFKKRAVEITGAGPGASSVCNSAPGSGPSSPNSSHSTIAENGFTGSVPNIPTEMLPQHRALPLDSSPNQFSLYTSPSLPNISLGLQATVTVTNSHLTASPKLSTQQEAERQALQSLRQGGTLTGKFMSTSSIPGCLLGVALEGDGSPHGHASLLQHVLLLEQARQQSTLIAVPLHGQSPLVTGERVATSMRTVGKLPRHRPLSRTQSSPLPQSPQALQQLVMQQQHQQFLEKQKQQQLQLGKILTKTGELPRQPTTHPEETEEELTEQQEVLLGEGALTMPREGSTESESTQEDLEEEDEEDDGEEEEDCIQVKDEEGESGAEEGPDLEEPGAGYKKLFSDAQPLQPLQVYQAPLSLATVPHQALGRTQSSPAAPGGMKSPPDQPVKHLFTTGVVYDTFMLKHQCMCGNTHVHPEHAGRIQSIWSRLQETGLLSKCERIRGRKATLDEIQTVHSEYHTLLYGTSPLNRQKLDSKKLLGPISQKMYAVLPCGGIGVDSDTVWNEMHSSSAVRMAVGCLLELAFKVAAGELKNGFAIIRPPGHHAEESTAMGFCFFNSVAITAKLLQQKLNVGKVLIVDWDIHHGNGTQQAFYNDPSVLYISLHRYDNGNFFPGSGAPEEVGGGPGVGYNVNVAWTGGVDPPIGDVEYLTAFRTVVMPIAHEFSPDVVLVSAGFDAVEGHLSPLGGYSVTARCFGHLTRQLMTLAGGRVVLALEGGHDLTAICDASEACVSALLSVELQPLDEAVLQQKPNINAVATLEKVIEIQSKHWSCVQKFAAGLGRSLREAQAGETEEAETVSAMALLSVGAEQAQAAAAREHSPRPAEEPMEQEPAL

One test deals with Histone deacetylase 9 (Homo sapiens, UniProt Q9UKV0). Put plainly: Inhibition of HDAC9 (unknown origin) using Boc-Lys(trifluoroacetyl)-AMC fluorogenic acetylated peptide substrate by fluorometric assay.
A further test addresses Histone deacetylase 5 (Homo sapiens, UniProt Q9UQL6). Kind of test: Inhibition of HDAC5 (unknown origin) using Boc-Lys(trifluoroacetyl)-AMC fluorogenic acetylated peptide substrate by fluorometric assay.

On to `CC(/C=C/C(=O)NO)=C\[C@@H](C)C(=O)c1ccc(N(C)C)cc1` [TRICHOSTATIN], for which the IC50 against Histone deacetylase 9 amounted to 5 µM; against Histone deacetylase 5, 1.4 µM.

In general, IC50 refers to the concentration needed to halve the response being measured. Read a low IC50 as greater potency in that assay.
